Results: patent US11065492B2, “Controlled medication denaturing composition and method” (priority 2018, dated 2021)

assay: Effects of different oxidants on morphine (Example 2); conditions: 1% KMNO4, 8.25% sodium hypochlorite (household bleach), 32% peracetic acid; approximately 2 hours

Compound	denaturation/degradation of morphine by oxidant, in words
Potassium Permanganate	effectively denatured/degraded

same assay, conditions: 500 μL oxidant solution (concentration per oxidant in column % SOLUTION CONCENTRATION; 250 μL for nitric and peracetic acid) + 500 μL 100 μg/mL morphine in methanol, approximately 2 hours

Compound	% MORPHINE DENATURED [%]
Potassium Permanganate	100
Potassium chromate	10
Sodium chlorite	90

assay: Degradation of controlled substances in halogenated oxidants: DCI (Example 5); conditions: 500 μL 100 μg/mL drug + 500 μL 20% sodium dichloroisocyanurate dihydrate (DCI), approximately 2 hours, LC-MS

Compound	Degradation of controlled substance treated with 20% DCI [%]
CN[C@@H](C)Cc1ccccc1	100
CCCC(C)C1(CC)C(=O)NC(=O)NC1=O (centres unmarked)	95
CN1C(=O)CN=C(c2ccccc2)c2cc(Cl)ccc21	100
CCOC(=O)C1(c2ccccc2)CCN(C)CC1	100
CNC1(c2ccccc2Cl)CCCCC1=O (centres unmarked)	100
COC(=O)[C@H]1[C@@H](OC(=O)c2ccccc2)C[C@@H]2CC[C@H]1N2C	100
CC(N)Cc1ccccc1 (centres unmarked)	100
